# Earlier results, collected in US6479509B1, “Method of promoting smoking cessation” (priority 2000, dated 2002).
# By UniProt entry, the sequences of proteins in these tests, tags left out.
# UniProt P23977, whole entry: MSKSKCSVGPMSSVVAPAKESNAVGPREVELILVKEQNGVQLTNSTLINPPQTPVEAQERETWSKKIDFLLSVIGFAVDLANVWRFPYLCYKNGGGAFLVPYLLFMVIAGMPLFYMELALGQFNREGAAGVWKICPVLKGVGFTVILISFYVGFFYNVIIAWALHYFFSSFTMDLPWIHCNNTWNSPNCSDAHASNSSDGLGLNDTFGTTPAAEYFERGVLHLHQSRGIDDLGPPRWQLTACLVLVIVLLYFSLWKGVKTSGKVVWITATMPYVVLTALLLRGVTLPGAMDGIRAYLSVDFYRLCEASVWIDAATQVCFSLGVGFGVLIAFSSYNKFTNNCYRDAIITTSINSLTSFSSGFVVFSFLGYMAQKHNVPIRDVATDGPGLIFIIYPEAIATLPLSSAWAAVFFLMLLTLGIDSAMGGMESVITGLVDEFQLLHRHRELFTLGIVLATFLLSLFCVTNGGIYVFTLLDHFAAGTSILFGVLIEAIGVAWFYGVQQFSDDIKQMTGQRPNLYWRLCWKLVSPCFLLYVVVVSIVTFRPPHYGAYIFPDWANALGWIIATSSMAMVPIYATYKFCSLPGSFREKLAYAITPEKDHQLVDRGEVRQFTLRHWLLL
# pIC50: −log10 of the molar value.
# Molecular target: T1, Dopamine transporter (Rattus norvegicus, UniProt P23977)
# T1 construct: from tissue; host or cells: brain
# Conditions: brain; read-out: Dopamine [3H]WIN 35,428 IC50; cited from earlier work
compound,measurement,value
COC(=O)[C@H]1[C@@H](c2ccc(Cl)cc2)C[C@H]2CC[C@H]1N2C [RTI-31],pIC50,8.95
